Measured values reported in PMC4414916 (Biochemistry, 2015).

By UniProt entry, the sequences of proteins in these tests, tags left out. Where a name states a change or a piece, a line headed by the entry shows the natural chain unless it says otherwise. Residues count along the entry.
UniProt Q7NDN8, 44-359: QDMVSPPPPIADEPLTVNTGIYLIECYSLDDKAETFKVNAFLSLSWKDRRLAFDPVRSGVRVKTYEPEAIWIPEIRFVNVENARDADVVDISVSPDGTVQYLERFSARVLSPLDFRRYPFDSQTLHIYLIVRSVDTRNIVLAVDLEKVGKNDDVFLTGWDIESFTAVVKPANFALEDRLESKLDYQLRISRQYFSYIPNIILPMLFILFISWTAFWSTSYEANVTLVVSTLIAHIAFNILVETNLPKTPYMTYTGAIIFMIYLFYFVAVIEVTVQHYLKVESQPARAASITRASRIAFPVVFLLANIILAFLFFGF

Tests used:
Assay in all cases: cell-based
WT GLIC = WT GLIC (Gloeobacter violaceus, UniProt Q7NDN8)
GLIC–5-HT3A 1B = GLIC–5-HT3A 1B (Gloeobacter violaceus, UniProt Q7NDN8)
GLIC–5-HT3A 0B = GLIC–5-HT3A 0B (Gloeobacter violaceus, UniProt Q7NDN8)
GLIC–nAChα7 1B = GLIC–nAChα7 1B (Gloeobacter violaceus, UniProt Q7NDN8)
GLIC–nAChα7 OB = GLIC–nAChα7 OB (Gloeobacter violaceus, UniProt Q7NDN8)
GLIC–GABAAρ1 1B = GLIC–GABAAρ1 1B (Gloeobacter violaceus, UniProt Q7NDN8)
GLIC–GABAAρ1 0B = GLIC–GABAAρ1 0B (Gloeobacter violaceus, UniProt Q7NDN8)
GLIC–Glyαl 1B = GLIC–Glyαl 1B (Gloeobacter violaceus, UniProt Q7NDN8); details: IC50, TBA inhibition of pH 4.5-induced currents, GLIC–Glyα1 1B
GLIC–Glyα1 0B = GLIC–Glyα1 0B (Gloeobacter violaceus, UniProt Q7NDN8)
[1] = biological target: GLIC–eukaryotic–ICD chimeras (Gloeobacter violaceus, UniProt Q7NDN8)
[2] = IC50, TBA inhibition of pH 4.5-induced currents
[3] = log IC50, TBA inhibition of pH 4.5-induced currents, ± standard error

## CCCC[N+](CCCC)(CCCC)CCCC [TBA, tetrabutylammonium]
WT GLIC; IC50, text value, wild-type GLIC, pH 4.5
  IC50: 500 µM
WT GLIC; log IC50, TBA inhibition of pH 4.5-induced currents, WT GLIC, ± standard error
  IC50: 457 µM
GLIC–5-HT3A 1B; IC50, TBA inhibition of pH 4.5-induced currents, GLIC–5-HT3A 1B
  IC50: 125 µM
GLIC–5-HT3A 1B; IC50, text value, GLIC–5HT3A 1B chimera, pH 4.5
  IC50: 100 µM
GLIC–5-HT3A 1B; log IC50, TBA inhibition of pH 4.5-induced currents, GLIC–5-HT3A 1B, ± standard error
  IC50: 120 µM
GLIC–5-HT3A 0B; IC50, TBA inhibition of pH 4.5-induced currents, GLIC–5-HT3A 0B
  IC50: 120 µM
GLIC–5-HT3A 0B; IC50, text value, GLIC–5HT3A 0B chimera, pH 4.5
  IC50: 100 µM
GLIC–5-HT3A 0B; log IC50, TBA inhibition of pH 4.5-induced currents, GLIC–5-HT3A 0B, ± standard error
  IC50: 95.5 µM
GLIC–nAChα7 1B; [2]
  IC50: 525 µM
GLIC–nAChα7 1B; [3]
  IC50: 501 µM
GLIC–nAChα7 OB; [2]
  IC50: 392 µM
GLIC–nAChα7 OB; [3]
  IC50: 363 µM
GLIC–GABAAρ1 1B; [2]
  IC50: 1040 µM
GLIC–GABAAρ1 1B; [3]
  IC50: 912 µM
GLIC–GABAAρ1 0B; IC50, TBA inhibition of pH 4.5-induced currents, GLIC–GABAAρ1 0B
  IC50: 2060 µM
GLIC–GABAAρ1 0B; IC50, text value, GLIC–GABAAρ1 0B chimera, pH 4.5
  IC50: 2000 µM
GLIC–GABAAρ1 0B; log IC50, TBA inhibition of pH 4.5-induced currents, GLIC–GABAAρ1 0B, ± standard error
  IC50: 2000 µM
GLIC–Glyαl 1B
  IC50: 456 µM
GLIC–Glyα1 0B; [2]
  IC50: 327 µM
GLIC–Glyα1 0B; [3]
  IC50: 295 µM
[1]
  IC50: 100 to 2000 µM
